Conditions: mouse, human, pH 7.4

With `c1ccc2c(-c3cnn4cc(-c5ccc(N6CCNCC6)nc5)cnc34)ccnc2c1` [compound 1, 4-(6-(6-(piperazin-1-yl)pyridin-3-yl)pyrazolo[1,5-a]pyrimidin-3-yl)quinoline] as the compound, how does the “cyanide adducts (reactive intermediate trapping with KCN)” value read?
Its value is “a cyanide adduct, M432, was observed in both species”.

And the “major metabolism in the presence of liver cytosol (aldehyde oxidase-mediated oxidation)” value?
Its value is “extensively metabolized to an oxidized metabolite, M423c”.

Source: patent US10017516B2, “BMP inhibitors and methods of use thereof” (The Brigham and Women's Hospital, Inc., priority 2013, dated 2018)
